Assay results: PubChem BioAssay AID504634 (The Scripps Research Institute Molecular Screening Center, 2011)
The list shows a part of the results, in another mix than the full data. Active and inactive are the calls of the source. No stated cut-off is given here; in the data, active means inhibition mostly above about 23% (no sharp cut-off); inactive means mostly below about 18%.

By UniProt entry, the sequences of proteins in these tests, tags left out.
UniProt P47898, whole entry, looked up: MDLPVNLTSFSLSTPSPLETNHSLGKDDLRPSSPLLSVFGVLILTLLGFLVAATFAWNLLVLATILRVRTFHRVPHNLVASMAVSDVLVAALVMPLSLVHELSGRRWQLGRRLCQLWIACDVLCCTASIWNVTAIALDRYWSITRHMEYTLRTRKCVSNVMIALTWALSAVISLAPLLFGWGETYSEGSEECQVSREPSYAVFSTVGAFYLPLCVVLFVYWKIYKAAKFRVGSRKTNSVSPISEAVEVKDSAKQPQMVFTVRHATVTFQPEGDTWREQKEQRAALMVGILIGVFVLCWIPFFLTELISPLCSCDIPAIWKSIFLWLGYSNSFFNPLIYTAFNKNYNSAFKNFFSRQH

Each compound was assayed against 5-hydroxytryptamine receptor 5A (Homo sapiens) (UniProt P47898) (assay: inverse agonism at human 5-HT5A receptor – cell-based, luminescence, full-deck HTS, counter-screen for OPRM1-OPRD1 heterodimer inverse agonist project, primary screen (AID 504634;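 further: 0% = cells with DMSO and 100% = no-cell wells with DMSO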)). Details: HTR5A cell line, at 9.3 µM, active compounds read high.
For `COC(=O)c1ccccc1NC(=O)Cn1cnc2cc(C)c(C)cc21`, the inhibition was inactive: 19.6%. With `CSCC[C@H](NC(=O)N1CCn2c1nc1ccccc12)C(=O)N[C@H](Cc1ccccc1)C(=O)O` the inhibition was inactive: -43.9%. In the case of `CCOc1ccccc1OCC(=O)NNC(=O)Cn1cnc2c1c(=O)n(C)c(=O)n2C`, the inhibition is reported as inactive: -5.87%. For `CC1CCCCC1NC(=O)Cn1cnc2c1c(=O)n(C)c(=O)n2C` (stereo not drawn), the inhibition was inactive: -16.5%. `Cc1ccccc1Cn1c(=O)c2c(nc3n2CCN3Cc2ccco2)n(C)c1=O` was tested, and the inhibition was inactive: -17.8%. With `Nc1nonc1-c1nc2ccccc2n1CC(=O)N1CCCCC1` the inhibition was inactive: 4.62%. For `Cc1ccc(C)c(CN2CCC(n3nnc4cc(F)ccc43)CC2)c1`, the inhibition was inactive: 0.25%. For `COC(=O)c1sccc1NC(=O)Cn1cnc2c1c(=O)n(C)c(=O)n2C`, the inhibition was inactive: 14.3%. `N#CCCNC(=O)Cn1c(COc2ccc(Cl)cc2)nc2ccccc21` was tested, and the inhibition was inactive: -10.6%. With `Cn1c(=O)[nH]c(=O)c2c1nc1n2CCN1Cc1ccccc1` the inhibition was inactive: -17.6%. In the case of `Cn1ncc([N+](=O)[O-])c1C(=O)Nc1nc2ccccc2n1CCN1CCCCC1`, the inhibition is reported as inactive: -9.01%. For `CC(=O)N1C2C3N(C(C)=O)C1C1N(C(C)=O)C(C(N1C(C)=O)N3C(C)=O)N2C(C)=O`, the inhibition was inactive: -7.99%. With `CC#CCCC(=O)N1C=Cc2ccccc2C1C#N` (stereo not drawn) the inhibition was inactive: -1.77%. For `O=[N+]([O-])c1cccc2n[nH]nc12`, the inhibition was inactive: -0.81%. In the case of `N=c1n(CCN2CCCCC2)c2ccccc2n1CC(O)c1ccco1` (stereo not drawn), the inhibition is reported as inactive: -10.7%. With `O=C(Cn1c(NCCO)nc2ccccc21)N1CCN(Cc2ccccc2)CC1` the inhibition was inactive: 7.69%. With `Cn1c(=O)c2c(ncn2CC(=O)Nc2ccccc2)n(C)c1=O` the inhibition was inactive: 30.3%. In the case of `Nc1ccccc1CNc1nc(NCCO)nc2c1ncn2CCN1CCOCC1`, the inhibition is reported as inactive: -0.99%. In the case of `NC(=O)CC(NC(=O)c1ccccc1)c1ccc(NC2CCN(Cc3ccccc3)CC2)c([N+](=O)[O-])c1` (stereo not drawn), the inhibition is reported as inactive: -42.1%. With `N#CCC(=O)N/N=C\c1cc(Br)ccc1OC/C=C/c1ccccc1` the inhibition was inactive: 24.3%. With `Cc1ccc2c(c1)C1CN(C)CCC1N2S(=O)(=O)c1ccc(Oc2ccc([N+](=O)[O-])cc2)cc1` (stereo not drawn) the inhibition was inactive: 17.1%. In the case of `Cc1ccc(SCc2nc3ccccc3n2CC(=O)Nc2ccccc2)cc1`, the inhibition is reported as inactive: 0.35%. `COc1cc(NC(=O)Cn2cnc3c(SC)nc(N)nc32)cc(OC)c1OC` was tested, and the inhibition was inactive: 7.74%. With `Cc1cc(NC(=O)CSc2nc3ccccc3n2CC(=O)N2CC(C)CC(C)C2)no1` (stereo not drawn) the inhibition was inactive: 5.79%. With `Cn1c(=O)c2c(nc(Cl)n2CC(=O)NC2(C#N)CCCCC2)n(C)c1=O` the inhibition was inactive: -14.5%. With `CSc1nc(N)nc2c1ncn2CC(=O)NCCCc1ccccc1` the inhibition was inactive: -12.1%. For `c1ccc(CN2CCC3(CC2)Nc2ccccc2CO3)cc1`, the inhibition was inactive: -3.38%. `CCOC(=O)CSc1nc2ccccc2n1CC(=O)N1CCN(c2ccccc2)CC1` was tested, and the inhibition was inactive: 18.7%. For `Cn1c(=O)c2c(ncn2CC(=O)N2CCN(c3ccccc3F)CC2)n(C)c1=O`, the inhibition was inactive: -8.84%. For `COc1ccc(C2=NCC(CBr)S2)cc1` (stereo not drawn), the inhibition was inactive: 7.7%. In the case of `CCN(CC)CCn1c(=N)n(CCO)c2ccccc21`, the inhibition is reported as inactive: -2.4%. In the case of `Cn1c(=O)c2c(ncn2CC(=O)N/N=C/c2ccco2)n(C)c1=O`, the inhibition is reported as inactive: -27.5%. In the case of `CC(=O)N1CCc2cc(S(=O)(=O)NC(CC(C)C)C(=O)N3CCn4c3nc3ccccc34)ccc21` (stereo not drawn), the inhibition is reported as inactive: 8.46%. In the case of `CCC(=O)Nc1cccc(C(=O)/C=C/c2cccs2)c1`, the inhibition is reported as inactive: -2.8%. With `CCC(C)[C@H](NC(=O)N1CCn2c1nc1ccccc12)C(=O)NCCc1ccccc1` (stereo partly drawn) the inhibition was inactive: -12.1%. With `C[C@H](O)[C@@H]1C(=O)N2CCc3ccc(-c4ccccc4)cc3[C@@H]2C[C@@H]1N(C)C(=O)Nc1cc(Cl)cc(Cl)c1` the inhibition was inactive: -22.5%. With `O=C(NC1CCCCC1)N1CCC(n2c(=O)[nH]c3ccccc32)CC1` the inhibition was inactive: -54.1%. For `Cn1c(=O)c2c(nc(Sc3nc4ccccc4n3CC(=O)N3CCCCC3)n2C)n(C)c1=O`, the inhibition was inactive: -28.1%. For `O=C(Cn1cnc2c(OCc3ccccc3)ncnc21)NCCCn1ccnc1`, the inhibition was inactive: 1.85%. `CCSc1nc2ccccc2n1CC(=O)N1CCCCC1` was tested, and the inhibition was inactive: -15.7%. In the case of `Cc1nc2ccccc2n1CC(=O)NC1CCCCCC1`, the inhibition is reported as inactive: 4.27%. `O=C1CC(C(=O)Nc2cccc(F)c2)n2c(nc3ccccc32)N1` (stereo not drawn) was tested, and the inhibition was inactive: 0.54%. In the case of `CC1CCN(C(=O)Oc2c(Cl)cc(Cl)c3cccnc23)CC1`, the inhibition is reported as inactive: 3.92%. `CNC(=O)Cc1nc2ccccc2n1CC(=O)Nc1cc(C)cc(C)c1` was tested, and the inhibition was inactive: -14.6%. With `N=c1n(CCN2CCOCC2)c2ccccc2n1CC(=O)c1cccc([N+](=O)[O-])c1` the inhibition was inactive: -9.96%. For `O=C(Cn1cnc2c(OCc3ccccc3)ncnc21)NCCCN1CCCC1=O`, the inhibition was inactive: -13.8%. With `CN(C)C(=O)OCCc1n(C)cc[n+]1C` the inhibition was inactive: 1.49%. For `CC(C)=N/N=C(\N)N[N+](=O)[O-]`, the inhibition was inactive: 17.1%. With `Cn1c(=O)n(CC(=O)N2CCN(c3nnc(-c4ccccc4)c4ccccc34)CC2)c2ccccc21` the inhibition was inactive: -2.01%. For `COC(=O)[C@H](Cc1ccc(O)cc1)NC(=O)Cn1cnc2c(NCc3ccccc3)ncnc21`, the inhibition was inactive: -17.5%. In the case of `NNC(=O)Cn1c(SCc2ccccc2)nc2ccccc21`, the inhibition is reported as inactive: -9.97%. In the case of `CCN(CC)CCn1c(NCc2cccc(OC)c2OC)nc2ccccc21`, the inhibition is reported as inactive: 5.1%. With `CN1CCC(N(C)c2ncnc3ccc(Br)cc23)CC1` the inhibition was inactive: 7.04%. In the case of `Cn1c(=O)c2c(ncn2CC(=O)N2CCN(c3ccc([N+](=O)[O-])cc3)CC2)n(C)c1=O`, the inhibition is reported as inactive: 1.02%. For `CCc1nc2ccccc2n1CC(=O)N(C(C)CC)C1CCS(=O)(=O)C1` (stereo not drawn), the inhibition was inactive: -29.1%. `CCOC(=O)c1c(NC(=O)Cn2c(C)nc3ccccc32)sc2c1CCC2` was tested, and the inhibition was inactive: -16.6%. `CC(C)C[C@H](NC(=O)N1CCn2c1nc1ccccc12)C(=O)NC1CCCCC1` was tested, and the inhibition was inactive: -9.03%. In the case of `O=C(Nc1ccc2c(c1)nc1n2CCN(Cc2ccccc2)C1)NC1CCCCC1`, the inhibition is reported as inactive: 10.1%. In the case of `CCN(/C(=N/P(=O)(N1CCOCC1)N1CCOCC1)N1CCOCC1)c1ccc(OC)cc1`, the inhibition is reported as inactive: 13.9%. For `COc1ccc(/C([O-])=C(/C(=S)Nc2ccc(C)c(C)c2)n2c[n+](C)c3ccccc32)cc1OC`, the inhibition was inactive: 12.7%. With `Cc1ccc(-c2nnc(N3CCN(C(=O)Cn4c(=O)n(C)c5ccccc54)CC3)c3ccccc23)cc1` the inhibition was inactive: -11.9%. With `CCc1ccc(C(C)NC(=O)Cn2cnc3c(=O)n(C)c(=O)n(C)c32)cc1` (stereo not drawn) the inhibition was inactive: -8.11%. `Cc1nc2ccccc2n1CC(=O)NC(C)C1CC2CCC1C2` (stereo not drawn) was tested, and the inhibition was inactive: 31.9%. In the case of `C[N+]1=C2C=CC=CC=C2SC12C([N+](=O)[O-])=CC([N+](=O)[O-])=C[C-]2[N+](=O)[O-]` (stereo not drawn), the inhibition is reported as inactive: -15%. With `COc1ccc(-c2ccc3c(c2)[C@@H]2C[C@H](N(C)C(=O)Nc4ccccc4)[C@H]([C@H](C)O)C(=O)N2CC3)cc1` the inhibition was inactive: -0.25%. For `Nc1ccc([As](=O)(O)c2ccc(N)cc2)cc1`, the inhibition was inactive: -10.2%. In the case of `COCC(=O)N(C)[C@H]1C[C@H]2c3cc(N4CCN(C)CC4)ccc3CCN2C(=O)[C@H]1[C@H](C)O`, the inhibition is reported as inactive: -0.07%. `C[C@H](NC(=O)N1CCn2c1nc1ccccc12)C(=O)NC1CCCCC1` was tested, and the inhibition was inactive: -14.5%. For `CCC(CC)NC(=O)Cn1c(C(C)NC(C)=O)nc2ccccc21` (stereo not drawn), the inhibition was inactive: -0.43%. For `c1ccc(CCn2nnnc2CN2CCC(n3nnc4ccccc43)CC2)cc1`, the inhibition was inactive: 24%. In the case of `FC(F)(F)c1ccc2c(c1)nnn2C1CCN(Cc2nnnn2Cc2ccccc2)CC1`, the inhibition is reported as inactive: -8.49%. For `COc1ccc2nc(NC(=O)Cn3cnc4c(=O)n(C)c(=O)n(C)c43)sc2c1`, the inhibition was inactive: 6.95%. For `CCC(=O)Nc1ccc(NC(=S)NC(=O)/C=C/c2ccccc2)cc1`, the inhibition was inactive: 16%. `Cn1c(=O)[nH]c(=O)c2c1nc(CN1CCN(c3ccccc3F)CC1)n2CC(N)=O` was tested, and the inhibition was inactive: 0.95%. With `CC1CN(Cc2nc3c(c(=O)[nH]c(=O)n3C)n2CC(N)=O)CC(C)O1` (stereo not drawn) the inhibition was inactive: -11.6%. In the case of `Cc1nc2cc(C(F)(F)F)ccc2n1C1CCN(Cc2nnnn2Cc2ccc3c(c2)OCO3)CC1`, the inhibition is reported as inactive: 21%. With `Cc1ccc(CNC(=O)CCNC(=O)N2CCn3c2nc2ccccc23)cc1` the inhibition was inactive: 11.8%. `COc1ccc(CNc2nc3ccccc3n2CCN2CCCCC2)c(OC)c1` was tested, and the inhibition was inactive: 16.2%. For `c1ccc(CN2CCC3(CC2)Nc2ccccc2S3)cc1`, the inhibition was inactive: -14.7%. For `COc1ccccc1CNc1nc2ccccc2n1CCN1CCCCC1`, the inhibition was inactive: -2.64%. For `COc1ccc(N2CCn3c2nc2c3c(=O)n(CCCc3ccccc3)c(=O)n2C)c(OC)c1`, the inhibition was inactive: 0.73%. `CCSc1nnc(NC(=O)Cn2cnc3c2c(=O)n(C)c(=O)n3C)s1` was tested, and the inhibition was inactive: 0.32%. In the case of `Cc1cc(C)c(CN2CCN(C(=O)Cn3cnc4c(OCc5ccccc5)ncnc43)CC2)c(C)c1`, the inhibition is reported as inactive: -2.33%. With `C=CCc1cccc(CNc2nc3ccccc3n2CCN2CCOCC2)c1O` the inhibition was inactive: -48.4%. With `O=C(Nc1cc([As](=O)(O)O)ccc1O)c1ccccc1` the inhibition was inactive: -25.7%. With `Cn1c(=O)n(CC(=O)Nc2ccccc2)c2ccccc21` the inhibition was inactive: -2.79%. For `O=C(c1ccco1)N1CCn2c1nc1ccccc12`, the inhibition was inactive: 16.6%. `COc1ccc(Cc2nc3ccccc3n2CC(=O)N/N=C/c2ccccc2)cc1OC` was tested, and the inhibition was inactive: -3.69%.
